Test results as given in US10011657B2, “Anti-CS1 antibodies and antibody drug conjugates” (AbbVie Biotherapeutics Inc., priority 2014, dated 2018).

What was measured:
rat CS1 = test: Binding to rat CS1
[1] = Non-GLP dose range-finding study in cynomolgus monkeys; assay type: in vivo; conditions: 24 mg/kg, 30-minute IV infusion Q3W, 2 doses
Description: In a non-GLP dose range-finding study, Hu34C3-MMAE E2 was administered to cynomolgus monkeys via 30-minute IV infusion at every 3 week (Q3W) dose interval for a total of 2 doses (Day 1 and Day 22), with necropsy on Day 29.

MOLP-8 xenografts = test: MOLP-8 xenograft in NSG mice; assay type: in vivo; conditions: E2 10 mg/kg, E4 5 mg/kg, unconjugated Hu34C3 10 mg/kg
Description: L-363, MM1.S and MOLP-8 xenografts were prepared and studies conducted as generally described in Example 12. NSG mice (NOD.Cg-Prkdcscid Il2rgtm1Wj1/SzJ) from The Jackson Laboratory (strain code 05557) were used. This strain lacks effector cells and eliminates the ADCC mechanism for all antibodies. Using this strain permits evaluation of Hu34C3-MMAE E2 and Hu34C3-MMAE E4 ADC activity independently of ADCC activity. […]. Dosing of test ADCs was normalized such that equal masses of the MMAE component were delivered, with 2-fold differences in the IgG component (i.e., Hu34C3-MMAE E2 was dosed at 10 mg/kg; Hu34C3-MMAE E4 was dosed at 5 mg/kg.) Results are shown in FIGS. 23A-23C.

B1: Hu34C3 (antibody)
heavy: EVQLVESGGGLVQPGGSLRLSCAASGFTFSDYYMAWVRQAPGKGLEWVASINYDGSSTYYVDSVKGRFTISRDNAKNSLYLQMNSLRAEDTAVYYCARDRGYYFDYWGQGTTVTVSSASTKGPSVFPLAPSSKSTSGGTAALGCLVKDYFPEPVTVSWNSGALTSGVHTFPAVLQSSGLYSLSSVVTVPSSSLGTQTYICNVNHKPSNTKVDKKV[human IgG1 Fc not written out]
light: DVVMTQTPLSLSVTPGQPASISCRSSQSLVHSNGNTYLHWYLQKPGQSPQLLIYKVSNRFSGVPDRFSGSGSGTDFTLKISRVEAEDVGVYFCSQSTHVPPFTFGGGTKVEIKRTVAAPSVFIFPPSDEQLKSGTASVVCLLNNFYPREAKVQWKVDNALQSGNSQESVTEQDSKDSTYSLSSTLTLSKADYEKHKVYACEVTHQGLSSPVTKSFNRGEC
Binding to rat CS1 (rat CS1): does not bind to rat CS1 | Summary Observations [1]: No remarkable changes | Anti tumor activity (tumor volume) (MOLP-8 xenografts): no activity
